An excerpt weighted towards active compounds, which were near 2.2% of everything screened.
Nrf2 block – blocks Nrf2 signaling. A549 ARE-Fluc reporter, luciferase luminescence, 18-24 h. Potency, µM (titrated, usually from 46 µM), hits mostly inhibitors. 360,000 compounds, 2.1% hits. AID 504444; note: nearly all actives have a fitted effect of over 60% in size
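Concentration-response testing used A549 ARE_Fluc cells at 5000 cells/well. Following an 18-24 h compound incubation, viability was read by fluorescence (Ex 405/Em 525) and luciferase output by luminescence.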
PI4K2A block – PI4K2A (human) kinase inhibition; purified PI4K2A, ADP-Glo luminescence, 1 h; hits give low values; activity change, negative = inhibition, % at 76.9 µM; 420,000 compounds, 0.13% hits; AID 1346378; in the data active = activity change below about -50%; inconclusive = mostly about -30% to -49%
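In this quantitative HTS, ADP production by PI4K2A was quantified luminescently after 1 h at ambient temperature; 100 microM adenosine served as plate-quality control.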
A549 tox – A549 cytotoxicity, counter-screen for Nrf2 inhibitors; 390,000 compounds, 0.16% hits; AID 504648; A549 ARE-Fluc cells, CellTiter-Fluor viability, 18-24 h; Potency, µM (titrated, usually from 46 µM), actives largely listed as inhibitors
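A549 ARE-Fluc cells in 5% FBS OPTI-MEM, 5000 cells/well, rested 2 h then exposed to compounds in concentration-response for 18-24 h at 37 °C. Viability by CellTiter-Fluor fluorescence (Ex 405/Em 525) after 30 min; luciferase luminescence (BugLite, 15 min, RT) read afterwards.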
Nrf2 activator – activates Nrf2 signaling; AREc32 ARE-luciferase reporter (MCF7-derived line), luminescence, 24 h; Potency, µM (titrated, usually from 46.1 µM), actives largely listed as activators; 410,000 compounds, 0.31% hits; AID 624171; note: nearly all actives have a fitted effect of over 65% in size
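Each well held 1000 AREc32 cells, which were incubated with compound for 24 hr at 37 deg C after overnight attachment, and ARE reporter activity was quantified by firefly luciferase luminescence.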
miR-21 reporter – miR-21 reporter, rising signal; HeLa miR-21 FLuc reporter, luciferase, 48 h; Potency, µM (titrated, usually from 38.3 µM); 340,000 tested, under 10 active; AID 2288; active = well fitted rising curve with a large enough effect; inconclusive = small, poorly fitted or top-dose-only effect; inactive = no such curve, though single readings can be large or run the other way;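 also: miR-21 action dims this reporter so a rising signal means less miR-21 action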
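Luminescence from a firefly luciferase reporter carrying a miR-21 binding site downstream, stably expressed under a CMV promoter in HeLa cells that make miR-21 endogenously, reports miRNA modulation after 48 h compound exposure up to approximately 40uM final.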
GALK inh – galactokinase (human) inhibition | P51570 | Purified GALK, Kinase-Glo residual ATP luminescence | Potency, µM (doses to about 57.5 µM), usual class: inhibitors | 270,000 compounds, 0.007% hits | AID 1868
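ATP-depletion format; final 35 uM ATP, 100 uM D-galactose, 5 nM enzyme; pH 8.0 HEPES/Mg2+ buffer; 60 min RT; luminescence read 10 min after detection reagent.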
Each line names hits and unclear results; the compound was inactive in the other large screens. Unless noted, calls come from the whole dose curve; as a rule, active = well fitted curve in the direction sought with a large enough effect; inconclusive = small, poorly fitted or top-dose-only effect, or another doubt; inactive = no such curve, though single readings can be large; an effect the other way counts as inactive or inconclusive.

COc1ccccc1NS(=O)(=O)c1ccc2oc(SCC(C)=O)nc2c1	Nrf2 block inconclusive
COc1ccccc1NS(=O)(=O)c1ccc2oc(SCc3ccc(F)cc3)nc2c1	Nrf2 block 23µM
COc1ccc(NS(=O)(=O)c2ccc3oc(SCc4ccc(F)cc4)nc3c2)cc1	Nrf2 block 18µM
COc1ccccc1NS(=O)(=O)c1ccc2oc(SC)nc2c1	Nrf2 block 21µM
CCOC(=O)CSc1nc2cc(S(=O)(=O)Nc3ccccc3OC)ccc2o1	none
O=[N+]([O-])c1ccccc1NCc1ccc(O)c2ncccc12	Nrf2 block 6.5µM, A549 tox inconclusive (no result: PI4K2A block, Nrf2 activator, miR-21 reporter, GALK inh)
Cc1cccc(NCc2ccc(O)c3ncccc23)c1C	none
C[C@H]1[C@@H](NCc2ccccc2)CC[C@@]23CCCN2C(=O)CCC[C@@H]13	none (no result: Nrf2 block, A549 tox, Nrf2 activator, miR-21 reporter, GALK inh)
CCOc1ccc2c(ccc(/C=C/c3cc(C)c4cccnc4c3O)[n+]2C)c1	Nrf2 block inconclusive, PI4K2A block -58, A549 tox inconclusive (no result: miR-21 reporter, GALK inh)
Cc1nn(C)c(C)c1NS(=O)(=O)c1ccc(N2CCCC2=O)cc1	Nrf2 block 15µM
COc1ccc(CCNS(=O)(=O)c2ccc(N3CCCC3=O)cc2)cc1	Nrf2 block 26µM (no result: miR-21 reporter, GALK inh)
Cc1noc(C)c1CSCC(=O)N1CCN(c2ccc([N+](=O)[O-])cc2)CC1	Nrf2 block 21µM, A549 tox inconclusive
CCc1noc(C)c1C(=O)N1CCN(c2ccc([N+](=O)[O-])cc2)CC1	none (no result: Nrf2 block, A549 tox, miR-21 reporter, GALK inh)
Cc1ccc(CC(=O)N2CCN(c3ccc([N+](=O)[O-])cc3)CC2)cc1	Nrf2 block 21µM, A549 tox inconclusive
O=C(NC1CCCCC1)N1CCN(c2ccc([N+](=O)[O-])cc2)CC1	Nrf2 block 23µM
O=C(Nc1ccccc1)NN(C(=O)CCl)c1ccccc1	Nrf2 block 21µM, A549 tox inconclusive, Nrf2 activator inconclusive, miR-21 reporter inconclusive
COc1ccc(-n2c(SCC(=O)Nc3ccc(S(=O)(=O)Nc4nccs4)cc3)nnc2-c2ccccc2)cc1	none (no result: Nrf2 block, A549 tox, Nrf2 activator, miR-21 reporter, GALK inh)
O=C(NCc1ccc(F)cc1)n1cc(P(=S)(c2ccccc2)c2ccccc2)c2ccccc21	none (no result: PI4K2A block, Nrf2 activator, miR-21 reporter, GALK inh)
CCn1cc(C(=O)NCc2ccc3c(c2)OCO3)c(=O)c2cc(F)c(N3CCN(C(=O)c4ccco4)CC3)cc21	Nrf2 block 16µM, A549 tox inconclusive
CCn1cc(C(=O)NCc2ccccc2)c(=O)c2cc(F)c(N3CCN(C(=O)c4ccco4)CC3)cc21	A549 tox inconclusive (no result: Nrf2 block)
COc1ccc(OC)c(NC(=O)CSc2nncc3ccccc23)c1	A549 tox inconclusive
CCOc1ccccc1NC(=O)CSc1nncc2ccccc12	Nrf2 block 23µM
CCCCNc1nc(C#N)nc(Nc2ccccc2)n1	none (no result: PI4K2A block, Nrf2 activator, miR-21 reporter, GALK inh)
CC(C)(C)OC(=O)NCc1ccc(CNC(=O)c2[nH]cnc2C(=O)N[C@@H](Cc2ccccc2)C(=O)OC(C)(C)C)cc1	Nrf2 block 23µM (no result: GALK inh)
C[C@@H](NC(=O)c1nc[nH]c1C(=O)N[C@@H](CCCCNC(=O)OC(C)(C)C)C(=O)OC(C)(C)C)c1ccccc1	Nrf2 block 16µM, A549 tox inconclusive, miR-21 reporter inconclusive
CCOC(=O)c1ccc(NC(=O)c2nc[nH]c2C(=O)N[C@H](C)c2ccccc2)cc1	Nrf2 block 16µM, A549 tox inconclusive
CC(C)(C)OC(=O)[C@H](Cc1ccccc1)NC(=O)c1nc[nH]c1C(=O)NCc1ccccc1	none
CCN(C(=O)CSc1nnc(-c2cccnc2)n1Cc1ccco1)c1ccccc1	none (no result: Nrf2 block, A549 tox, Nrf2 activator, miR-21 reporter, GALK inh)
O=C(OCc1nc2scc(-c3ccccc3)c2c(=O)[nH]1)c1cc(Cl)ccc1[N+](=O)[O-]	none
Cc1c(C(=O)OCc2nc3scc(-c4ccccc4)c3c(=O)[nH]2)cccc1[N+](=O)[O-]	Nrf2 block 21µM
Cn1c(=O)n(C)c2cc([N+](=O)[O-])c(N3CCN(S(=O)(=O)c4ccc5ccccc5c4)CC3)cc21	Nrf2 block 5.8µM
Cn1c(=O)n(C)c2cc([N+](=O)[O-])c(N3CCN(C(=O)c4cccc(Cl)c4)CC3)cc21	Nrf2 block inconclusive
